Values quoted from earlier work, collected in patent publication US20090087916A1, “Assay method for identifying drug candidate” (AnGesMG, Inc., priority 2004, published 2009).

The chains behind the UniProt entries cited, without tags or fusion partners. Residues count along the entry.
UniProt P05067, 672-711: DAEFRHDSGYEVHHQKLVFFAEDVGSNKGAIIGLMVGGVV

Biological target: Aβ (1-40) (Homo sapiens, UniProt P05067)
Settings: Yang et al., J Biol Chem 2005; cited from earlier work

COc1cc(/C=C/C(=O)CC(=O)/C=C/c2ccc(O)c(OC)c2)ccc1O [curcumin]
inhibition of formation of an Aβ (1-40) fiber: inhibit the formation of an Aβ (1-40) fiber
